Test results: ChEMBL document CHEMBL1158589, “Benzimidazole and imidazole inhibitors of histone deacetylases: Synthesis and biological activity” (Bioorg Med Chem Lett, 2010)

Assays:
Histone deacetylase 8 = target: T1, Histone deacetylase 8 (Homo sapiens, UniProt Q9BY41); assay: Inhibition of human recombinant HDAC8
T1 sequence (Q9BY41 whole entry): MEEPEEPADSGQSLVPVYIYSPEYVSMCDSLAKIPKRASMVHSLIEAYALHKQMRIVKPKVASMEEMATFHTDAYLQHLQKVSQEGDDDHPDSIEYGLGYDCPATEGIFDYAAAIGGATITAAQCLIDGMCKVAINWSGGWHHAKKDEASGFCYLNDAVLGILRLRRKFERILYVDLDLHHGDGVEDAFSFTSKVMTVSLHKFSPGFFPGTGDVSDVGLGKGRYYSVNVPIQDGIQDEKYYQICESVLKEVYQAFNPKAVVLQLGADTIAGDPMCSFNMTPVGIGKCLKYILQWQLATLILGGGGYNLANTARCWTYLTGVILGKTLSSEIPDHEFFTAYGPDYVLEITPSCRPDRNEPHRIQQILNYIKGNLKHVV

[1] = target: T2, Protein deacetylase HDAC6 (Homo sapiens, UniProt Q9UBN7); assay: Inhibition of human recombinant HDAC6
T2 sequence (Q9UBN7 whole entry): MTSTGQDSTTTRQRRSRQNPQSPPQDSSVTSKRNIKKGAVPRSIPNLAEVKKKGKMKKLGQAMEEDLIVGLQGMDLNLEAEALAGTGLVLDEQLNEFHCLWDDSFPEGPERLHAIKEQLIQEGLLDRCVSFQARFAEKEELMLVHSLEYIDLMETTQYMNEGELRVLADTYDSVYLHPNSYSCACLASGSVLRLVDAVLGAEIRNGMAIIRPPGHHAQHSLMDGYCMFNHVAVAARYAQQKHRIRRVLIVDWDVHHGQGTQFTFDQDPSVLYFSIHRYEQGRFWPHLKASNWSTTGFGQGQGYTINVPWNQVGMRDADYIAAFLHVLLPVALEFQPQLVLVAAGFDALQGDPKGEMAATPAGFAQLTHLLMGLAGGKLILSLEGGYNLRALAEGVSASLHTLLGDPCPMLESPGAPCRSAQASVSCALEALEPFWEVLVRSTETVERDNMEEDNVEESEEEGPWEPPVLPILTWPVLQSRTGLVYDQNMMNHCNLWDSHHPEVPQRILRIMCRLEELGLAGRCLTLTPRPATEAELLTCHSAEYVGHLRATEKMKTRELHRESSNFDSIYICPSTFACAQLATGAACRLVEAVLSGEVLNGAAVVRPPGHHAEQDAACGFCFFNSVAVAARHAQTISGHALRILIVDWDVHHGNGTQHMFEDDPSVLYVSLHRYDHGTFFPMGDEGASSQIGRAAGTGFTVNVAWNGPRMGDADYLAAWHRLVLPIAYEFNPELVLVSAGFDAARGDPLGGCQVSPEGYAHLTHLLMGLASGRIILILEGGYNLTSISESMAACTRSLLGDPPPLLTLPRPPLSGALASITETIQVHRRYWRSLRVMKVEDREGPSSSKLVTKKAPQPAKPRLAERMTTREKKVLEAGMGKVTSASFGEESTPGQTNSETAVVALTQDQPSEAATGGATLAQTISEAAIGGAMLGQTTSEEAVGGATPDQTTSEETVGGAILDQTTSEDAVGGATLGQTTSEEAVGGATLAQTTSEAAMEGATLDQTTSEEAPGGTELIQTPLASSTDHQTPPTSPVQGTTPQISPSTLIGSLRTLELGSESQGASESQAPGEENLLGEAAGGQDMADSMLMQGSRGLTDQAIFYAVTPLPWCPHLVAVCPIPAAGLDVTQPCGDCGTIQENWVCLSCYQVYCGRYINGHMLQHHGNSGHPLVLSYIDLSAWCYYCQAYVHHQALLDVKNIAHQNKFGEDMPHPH
Summary of the method: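 Purified recombinant human HDAC-2 or HDAC-6 at known enzyme concentration with tBOC(Ac)-Lys-AMC as substrate. IC50 is the mean of at least three experiments.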

SMILES | IC50 (Histone deacetylase 8) [nM] | IC50 [1] [nM]
CCN1CCC[C@@H](n2c(C)nc(C)c2-c2cccc(/C=C/C(=O)NO)c2)C1 | 500 | 
O=C(/C=C/c1cccc(-c2nc3ccccc3n2CCN2CCCC2)c1)NO |  | 63
